The entries are a selection whose mix differs from that of the whole data set. Activity calls are given as the source filed them. Cut-off read from the data, not from the text of the source: active = activation above about 22%; inactive = the rest.
The compounds below were run against Peroxisome proliferator-activated receptor gamma (Homo sapiens) (UniProt P37231) (assay: agonists of PPARg-SRC-2 recruitment, primary screen, biochemical, HTS (AID 1032;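 note: 0% = vehicle and 100% = reference agonist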)). Details: PPARgamma LBD-SRC-2 recruitment, at 8 µM, hits give high values.

By UniProt entry, the sequences of proteins in these tests, tags left out. Residues count along the entry.
UniProt P37231, 232-505 limits assumed: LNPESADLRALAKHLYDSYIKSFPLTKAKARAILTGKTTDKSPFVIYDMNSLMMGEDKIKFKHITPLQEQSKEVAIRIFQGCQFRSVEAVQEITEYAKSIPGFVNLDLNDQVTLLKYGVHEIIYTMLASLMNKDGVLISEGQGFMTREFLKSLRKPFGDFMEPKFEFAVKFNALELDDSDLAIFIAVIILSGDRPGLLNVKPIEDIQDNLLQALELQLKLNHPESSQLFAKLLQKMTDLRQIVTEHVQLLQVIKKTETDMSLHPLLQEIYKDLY
UniProt Q15596, whole entry partner: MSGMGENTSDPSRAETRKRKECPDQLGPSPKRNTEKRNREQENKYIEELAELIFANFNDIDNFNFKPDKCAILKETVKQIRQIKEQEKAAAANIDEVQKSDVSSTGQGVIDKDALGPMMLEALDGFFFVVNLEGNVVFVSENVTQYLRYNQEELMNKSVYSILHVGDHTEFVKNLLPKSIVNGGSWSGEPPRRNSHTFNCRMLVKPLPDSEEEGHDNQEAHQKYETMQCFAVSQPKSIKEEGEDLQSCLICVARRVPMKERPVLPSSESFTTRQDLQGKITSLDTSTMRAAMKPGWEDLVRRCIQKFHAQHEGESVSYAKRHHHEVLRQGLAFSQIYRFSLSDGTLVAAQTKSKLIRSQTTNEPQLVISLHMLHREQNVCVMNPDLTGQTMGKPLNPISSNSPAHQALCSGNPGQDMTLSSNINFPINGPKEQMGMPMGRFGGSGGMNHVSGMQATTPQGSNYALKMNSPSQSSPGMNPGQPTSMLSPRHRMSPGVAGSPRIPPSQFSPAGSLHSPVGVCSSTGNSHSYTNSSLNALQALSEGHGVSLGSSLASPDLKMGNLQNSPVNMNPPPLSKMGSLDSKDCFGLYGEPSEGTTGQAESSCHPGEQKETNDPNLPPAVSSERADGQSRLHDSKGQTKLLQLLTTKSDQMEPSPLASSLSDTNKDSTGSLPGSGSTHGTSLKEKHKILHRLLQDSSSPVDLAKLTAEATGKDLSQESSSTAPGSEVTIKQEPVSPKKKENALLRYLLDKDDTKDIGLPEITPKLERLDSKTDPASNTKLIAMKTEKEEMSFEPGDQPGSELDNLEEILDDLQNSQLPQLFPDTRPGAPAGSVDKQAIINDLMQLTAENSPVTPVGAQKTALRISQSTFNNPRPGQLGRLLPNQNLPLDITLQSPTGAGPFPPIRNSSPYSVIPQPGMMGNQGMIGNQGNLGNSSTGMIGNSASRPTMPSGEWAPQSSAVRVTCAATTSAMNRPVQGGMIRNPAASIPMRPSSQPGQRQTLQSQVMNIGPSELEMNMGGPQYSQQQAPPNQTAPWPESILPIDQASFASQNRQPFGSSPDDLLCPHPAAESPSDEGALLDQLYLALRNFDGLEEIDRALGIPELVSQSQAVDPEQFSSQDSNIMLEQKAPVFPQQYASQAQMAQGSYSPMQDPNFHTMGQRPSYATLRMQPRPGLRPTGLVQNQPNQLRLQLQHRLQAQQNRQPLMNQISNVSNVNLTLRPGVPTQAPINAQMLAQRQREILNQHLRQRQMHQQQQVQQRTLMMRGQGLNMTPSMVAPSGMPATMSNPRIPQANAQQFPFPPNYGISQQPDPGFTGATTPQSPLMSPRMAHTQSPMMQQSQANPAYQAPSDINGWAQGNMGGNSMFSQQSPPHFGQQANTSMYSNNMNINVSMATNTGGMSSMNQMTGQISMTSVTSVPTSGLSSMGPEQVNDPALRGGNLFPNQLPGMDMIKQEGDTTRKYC

SMILES	activation
COc1ccccc1OP(C)(=O)Nc1c(C)n(C)n(-c2ccccc2)c1=O (centres undefined)	inactive: 5.59%
CP(=O)(Oc1ccccc1)N1CCOC1=O (centres undefined)	inactive: 9.71%
CCc1ccc(OP(C)(=O)Nc2cccnc2)cc1 (centres undefined)	inactive: 1.15%
CCN(CC)CC(O)COC(=O)C(O)(c1ccccc1)C1CCCCC1 (centres undefined)	inactive: 6.75%
COc1ccc(OP(C)(=O)Nc2ccc(Br)cc2)cc1 (centres undefined)	inactive: 1.07%
CN(C)C(=O)c1c([N+](=O)[O-])cc([N+](=O)[O-])cc1[N+](=O)[O-]	inactive: 4.06%
CC(C)(C)c1ccc(OP(C)(=O)O)cc1	inactive: 0.6%
COc1ccccc1OP(C)(=O)Nc1ccccc1Br (centres undefined)	inactive: -1.88%
CP(=O)(Nc1ccc(Cl)cc1)Oc1ccc(F)cc1 (centres undefined)	inactive: 12.2%
CCOC(=O)c1ccc(NP(C)(=O)Oc2ccc(Cl)cc2)cc1 (centres undefined)	inactive: 5.8%
CP(=O)(OC12CC3CC(CC(C3)C1)C2)OC12CC3CC(CC(C3)C1)C2	inactive: 13.9%
COc1ccccc1OP(C)(=O)Nc1ccc(C)c(C)c1 (centres undefined)	inactive: -2.69%
COc1ccc(OP(C)(=O)Nc2ccccc2Br)cc1 (centres undefined)	inactive: 3.42%
Cc1cc(C)cc(OP(C)(=O)Nc2cccc(C(F)(F)F)c2)c1 (centres undefined)	inactive: 4.61%
CP(=O)(OCCOc1ccccc1)OCCOc1ccccc1	inactive: 0.51%
CP(=O)(Nc1ccc(Cl)cc1Cl)Oc1ccccc1 (centres undefined)	inactive: 3.45%
Cc1nc2ccc3ccccc3c2o1.O=[N+]([O-])c1cc([N+](=O)[O-])c(O)c([N+](=O)[O-])c1	inactive: 9.32%
COc1ccc(OP(C)(=O)Nc2ccccn2)cc1 (centres undefined)	inactive: 8.42%
CN(C)CCOC(=O)C(O)(c1ccccc1)C1CCCC1 (centres undefined)	inactive: -2.47%
CP(=O)(Nc1ccccn1)Oc1ccccc1 (centres undefined)	inactive: 0.52%
COc1ccccc1OP(C)(=O)Nc1ccc(C)cc1C (centres undefined)	inactive: 1.49%
CCc1ccc(OP(C)(=O)O)cc1	inactive: -4.63%
O=[N+]([O-])c1cc([N+](=O)[O-])c(Nc2ccccn2)c([N+](=O)[O-])c1	inactive: 2.75%

SMILES	activation
Cc1c(NP(C)(=O)Oc2ccc(C(C)C)cc2)c(=O)n(-c2ccccc2)n1C (centres undefined)	inactive: -10.5%
CP(=O)(Nc1ccccc1F)Oc1ccccc1 (centres undefined)	inactive: 3.25%
CC(C)c1ccc(OP(C)(=O)Nc2ccc(SC(F)(F)F)cc2)cc1 (centres undefined)	inactive: 5.75%
O=C(OCCN1CCN(CCOCc2ccccc2)CC1)C(O)(c1ccccc1)c1ccccc1	inactive: -11.6%
CCOC(=O)c1ccc(NP(C)(=O)Oc2ccc(F)cc2)cc1 (centres undefined)	inactive: 2.33%
COc1ccc(OP(C)(=O)Nc2ccc(SC(F)(F)F)cc2)cc1 (centres undefined)	inactive: -0.96%
CP(=O)(Nc1ccccc1)Oc1ccc(F)cc1 (centres undefined)	inactive: 2.62%
CCN(CC)CCCOC(=O)C(O)(c1ccccc1)C1CCCCC1 (centres undefined)	inactive: 3.14%
CN(C)CCOC(=O)C(O)(c1ccccc1)C1CCCCC1 (centres undefined)	inactive: 4.65%
COc1ccc(NP(C)(=O)Oc2ccccc2OC)cc1 (centres undefined)	inactive: 1.59%
COc1ccc(OP(C)(=O)Nc2cccc(Br)c2)cc1 (centres undefined)	inactive: -0.26%
O=[N+]([O-])c1cc([N+](=O)[O-])c(NCC2CCS(=O)(=O)C2)c([N+](=O)[O-])c1 (centres undefined)	inactive: 4.12%
CCOP(C)(=S)SCC(=O)NC(C)(CC)C(=O)O (centres undefined)	inactive: 5.32%
Cc1ccccc1NP(C)(=O)Nc1ccccc1C	inactive: 1.7%
CP(=O)(Nc1ccc2c(c1)OCCO2)Oc1ccccc1 (centres undefined)	inactive: 0.85%
O=[N+]([O-])c1cc([N+](=O)[O-])c(-n2nnc3ccccc32)c([N+](=O)[O-])c1	inactive: 6.83%
Cc1nc2ccc3ccccc3c2s1.O=[N+]([O-])c1cc([N+](=O)[O-])c(O)c([N+](=O)[O-])c1	inactive: 3.31%
CP(=O)(Nc1ccc(SC(F)(F)F)cc1)Oc1ccccc1 (centres undefined)	inactive: 9.82%
CCCOc1ccc(NP(C)(=O)Oc2ccc(Cl)cc2)cc1 (centres undefined)	inactive: -13.9%
COc1ccccc1OP(C)(=O)Nc1c(C)cccc1C (centres undefined)	inactive: -0.78%
CN1CCCCC1COC(=O)C1(O)c2ccccc2CCc2ccccc21 (centres undefined)	inactive: -1.34%
CC1=NCCc2c1[nH]c1ccccc21.O=[N+]([O-])c1cc([N+](=O)[O-])c(O)c([N+](=O)[O-])c1	inactive: 9.06%
CCOC(=O)c1ccc(NP(C)(=O)Oc2cc(C)cc(C)c2)cc1 (centres undefined)	inactive: -1.71%

SMILES	activation
Cc1cc(C)cc(OP(C)(=O)Nc2ccc(C)cc2C)c1 (centres undefined)	inactive: 2.33%
Cc1ccc(C)c(NP(C)(=O)Oc2ccccc2)c1 (centres undefined)	inactive: -0.6%
CP(=O)(Nc1cccc(Br)c1)Oc1ccccc1 (centres undefined)	inactive: 3.09%
Cc1cc(C)cc(OP(C)(=O)Nc2ccccn2)c1 (centres undefined)	inactive: 0.5%
CCN(CC)CCCOC(=O)C(O)(c1ccccc1)c1ccccc1	inactive: 5.26%
O=[N+]([O-])c1ccc2c(c1)C=Nc1ccccc1O2	inactive: 0.13%
CC(C)(C)c1ccc(OP(C)(=O)Nc2ccc(SC(F)(F)F)cc2)cc1 (centres undefined)	inactive: -4.1%
Cc1cccc(C)c1OP(C)(N)=O (centres undefined)	inactive: 2.77%
Cc1cc(C)cc(OP(C)(N)=O)c1 (centres undefined)	inactive: 3.31%
COc1ccc(OP(C)(=O)Nc2cccc(F)c2)cc1 (centres undefined)	inactive: 2.05%
COc1ccccc1OP(C)(=O)Nc1ccc(C)cc1 (centres undefined)	inactive: 6.29%
Cc1ccc(NP(C)(=O)Oc2ccccc2)c(C)c1 (centres undefined)	inactive: 4.41%
CCOC(=O)c1ccc(NP(C)(=O)Oc2ccccc2)cc1 (centres undefined)	inactive: 0.7%
CP(=O)(Nc1ccccc1Br)Oc1ccccc1 (centres undefined)	inactive: 12.1%
COc1ccccc1OP(C)(=O)Nc1ccccc1 (centres undefined)	inactive: 7.48%
CP(=S)(Nn1cnnc1)Oc1ccccc1 (centres undefined)	inactive: 10.3%
CP(=O)(NC(=O)Nc1ccccc1)Oc1ccccc1 (centres undefined)	inactive: 0.04%
Cc1cc(C)cc(OP(C)(=O)Nc2ccc(SC(F)(F)F)cc2)c1 (centres undefined)	inactive: -5.44%
Cc1cccc(C)c1OP(C)(=O)Nc1ccc(SC(F)(F)F)cc1 (centres undefined)	inactive: -0.62%
CP(=O)(Oc1ccccc1)OC(c1ccccc1)C(F)(F)F (centres undefined)	inactive: 7.27%
CP(=O)(Nc1ccccn1)Oc1ccc(Cl)cc1 (centres undefined)	inactive: 7.32%
CCOC(=O)c1ccc(NP(C)(=O)Oc2ccc(OC)cc2)cc1 (centres undefined)	inactive: 6.53%
CCOP(C)(=S)SCC(=O)NC(C)C(=O)O (centres undefined)	inactive: 8.2%

Source: PubChem BioAssay AID1032 (The Scripps Research Institute Molecular Screening Center, 2008)
